Experimental findings from patent publication US20260083708A1, “IL-17 MODULATORS AND USES THEREOF” (NNOCARE PHARMA INC., priority 2024, published 2026) are described below.

Sequences of proteins named here, by UniProt entry; tags and fusion partners are left off. Residues count along the entry.
UniProt Q16552, 24-155 limits assumed: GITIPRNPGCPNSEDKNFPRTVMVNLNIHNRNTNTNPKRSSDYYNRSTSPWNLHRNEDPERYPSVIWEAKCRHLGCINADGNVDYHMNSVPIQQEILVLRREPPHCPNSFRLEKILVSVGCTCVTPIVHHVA

SMILES strings stand for the structures.

In assay [1] the test system is IL-17AA-induced IL-17 signaling pathway. As to the kind of experiment: Inhibition of IL-17AA-induced IL-17 signaling pathway in HEK-Blue IL-17 reporter cells (SEAP). The following applies: read-out: IC50 for Inhibiting IL-AA Signaling; HEK-Blue IL-17 cells, IL-17AA 2.5 ng/mL, 20 hours. From the text: Example 43. Inhibition of IL-17AA-Induced IL-17 Signaling Pathway
(§1) Interleukin-17 (IL-17) reporter cell line (HEK-Blue IL-17, InvivoGen, Catalog Number hkb-i117) is created by genetically engineering human IL-17RA/IL-17RC heterodimeric receptor and downstream adapter protein ACT1 into human embryonic kidney 293 cells (HEK293). These cells also express secreted embryonic alkaline phosphatase (SEAP) reporter gene induced by NF-κB and AP-1. Therefore, IL-17AA can activate NF-κB and AP-1 signaling pathways inside the cells by binding to IL-17RA/RC on cell membrane, leading to expression of SEAP protein. After a colorimetric reaction between SEAP protein and Quanti-Blue solution, the absorbance at 620 nm is measured using a microplate reader (BioTek H1M, Agilent, Catalog Number SH1M-SN) to determine IL-17AA-activated signaling pathway.
In the experiment, HEK-Blue IL-17 cells were cultured at 37° C. under 5% CO2 conditions using the recommended medium from InvivoGen's instruction. […] The group without tested compound had the highest absorbance at 620 nm, and the group without IL-17AA had the lowest absorbance at 620 nm.
(§2) Therefore, the percentage of inhibition of tested compound was calculated as
Experimental results were analyzed using XLfit (IDBS) for 4-parameter nonlinear fitting analysis to provide the IC50 value for each tested compound (Table 1).

The next assay has as its target IL-17AA and IL-17RA (Homo sapiens, UniProt Q16552). Put plainly: Competitive inhibition of human IL-17AA and IL-17RA binding (HTRF). The following applies: read-out: IC50 for Inhibiting IL-AA/IL-RA Binding; recombinant IL-17AA (His-tag) and IL-17RA (hFc-tag). As for the experimental part:
Example 42. Competitive Inhibition of Human IL-17AA and IL-17RA Binding
Recombinant IL-17AA (His-tag, Catalog Number 12047-H07B) and IL-17RA (hFc-tag, Catalog Number 10895-H02H) were purchased from Sino Biological. In the experiment, 10 μL of IL-17AA (1 nM) or IL-17RA (1 nM) was added to 10 μL of anti-6His-Tb (0.4 nM, Revvity, Catalog Number 61HISTLF) or anti-human IgG-d2 (1 μg/mL, anti-human IgG-d2, Revvity, Catalog Number 61HFCDAF), respectively and incubated at room temperature for 1 hour. Compounds were serially diluted starting from 10 μM. 5 μL of each compound solution was incubated with 5 μL of a mixture of IL-17AA and anti-6His-Tb at room temperature for 2 hours. After pre-incubation, to which was added 10 μL of a mixture of IL-17RA and anti-human IgG-d2, and incubation was continued for additional 20 minutes. Subsequently, a microplate reader (Envision, PerkinElmer) was used to detect fluorescence intensity at 615 nm and 665 nm, and the ratio of intensity thereof indicates the degree of IL-17AA and IL-17RA interaction. […]
as §2
Experimental results were analyzed using XLfit (IDBS) for 4-parameter nonlinear fitting analysis, to provide the IC50 value for each tested compound (Table 1).

The subject of assay [2] is IL-17AF-induced IL-17 signaling pathway. Put plainly: Inhibition of IL-17AF-induced IL-17 signaling pathway. The following applies: read-out: IC50 for Inhibiting IL-AF Signaling; IL-17AF used instead of IL-17AA.
Source text: as §1
In the experiment, HEK-Blue IL-17 cells were cultured at 37° C. under 5% CO2 conditions using the recommended medium from InvivoGen's instruction. Compounds were serially diluted starting from 10 μM. […] The group without tested compound had the highest absorbance at 620 nm, and the group without IL-17AA had the lowest absorbance at 620 nm.
as §2
Experimental results were analyzed using XLfit (IDBS) for 4-parameter nonlinear fitting analysis to provide the IC50 value for each tested compound (Table 1). […]

As to `Cc1nonc1C(=O)N[C@H](C(=O)Nc1ccc([C@H](C)[C@@H](NC(=O)N(C)C2CC2)c2ncnn2CC2CC2)cc1F)C(C1CC1)C1CC1`, the IC50 was determined as 0.7 nM in assay [1]; 6.5 nM on IL-17AA and IL-17RA; 1.5 nM in assay [2].
